Experimental data taken from PMC12102759 (Protein Science : A Publication of the Protein Society, 2025).

Amino acid sequences for entries named in this document (tags omitted). Residues count along the entry.
UniProt Q9Y490, 309-401: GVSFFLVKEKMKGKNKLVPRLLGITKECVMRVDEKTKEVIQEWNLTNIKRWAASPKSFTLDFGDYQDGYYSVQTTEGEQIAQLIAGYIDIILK

Assays:
AP2M1 MU = format: binding, human
TLN1 PTB = TLN1 PTB (Homo sapiens, UniProt Q9Y490); format: binding

| Substance | PSSM value of the substitution (DMS by phage display) (AP2M1 MU) | PSSM value of the substitution, averaged over the two overlapping peptides (AP2M1 MU) | further results |
| --- | --- | --- | --- |
| QVVSDIDYVPLKSATA L11S (QVVSDIDYVPSKSATA) | 0 | – | – |
| VSDIDYVPLKSATA(averaged) K10A (VSDIDYVPLASATA) | – | 0.0187 | – |
| VSDIDYVPLKSATA(averaged) I4E (VSDEDYVPLKSATA) | – | 0 | – |
| VSDIDYVPLKSATA(averaged) P8H (VSDIDYVHLKSATA) | – | 0 | – |
| VSDIDYVPLKSATA(averaged) L9M (VSDIDYVPMKSATA) | – | 0 | – |
| QVVSDIDYVPLKSATA S4A (QVVADIDYVPLKSATA) | 0 | – | – |
| VSDIDYVPLKSATAIT V7G (VSDIDYGPLKSATAIT) | 0 | – | – |
| VSDIDYVPLKSATA(averaged) L9K (VSDIDYVPKKSATA) | – | 0 | – |
| VSDIDYVPLKSATA(averaged) V7V | – | 0.05527 | – |
| VSDIDYVPLKSATA(averaged) A14H (VSDIDYVPLKSATH) | – | 0.003462 | – |
| QVVSDIDYVPLKSATA S13Y (QVVSDIDYVPLKYATA) | 6.609e-5 | – | – |
| QVVSDIDYVPLKSATA A16S (QVVSDIDYVPLKSATS) | 0.004622 | – | – |
| VSDIDYVPLKSATA(averaged) Y6G (VSDIDGVPLKSATA) | – | 0 | – |
| VSDIDYVPLKSATAIT L9H (VSDIDYVPHKSATAIT) | 0 | – | – |
| VSDIDYVPLKSATA(averaged) K10T (VSDIDYVPLTSATA) | – | 0.01603 | – |
| QVVSDIDYVPLKSATA A14H (QVVSDIDYVPLKSHTA) | 0.0006386 | – | – |
| QVVSDIDYVPLKSATA D5K (QVVSKIDYVPLKSATA) | 0 | – | – |
| VSDIDYVPLKSATAIT S2S | 0.002552 | – | – |
| VSDIDYVPLKSATA(averaged) D3F (VSFIDYVPLKSATA) | – | 0.07115 | – |
| VSDIDYVPLKSATAIT V7L (VSDIDYLPLKSATAIT) | 0.2591 | – | – |
| VSDIDYVPLKSATAIT A12F (VSDIDYVPLKSFTAIT) | 0.03563 | – | – |
| VSDIDYVPLKSATAIT Y6V (VSDIDVVPLKSATAIT) | 0 | – | – |
| VSDIDYVPLKSATA(averaged) P8T (VSDIDYVTLKSATA) | – | 0 | – |

| Substance | PSSM value of the substitution (DMS by phage display) (AP2M1 MU) | PSSM value of the substitution, averaged over the two overlapping peptides (AP2M1 MU) | further results |
| --- | --- | --- | --- |
| VSDIDYVPLKSATA(averaged) A14Q (VSDIDYVPLKSATQ) | – | 0.444 | – |
| VSDIDYVPLKSATAIT A12P (VSDIDYVPLKSPTAIT) | 0.0007881 | – | – |
| VSDIDYVPLKSATAIT I4N (VSDNDYVPLKSATAIT) | 4.18e-5 | – | – |
| VSDIDYVPLKSATA(averaged) S2L (VLDIDYVPLKSATA) | – | 0.00224 | – |
| QVVSDIDYVPLKSATA V2W (QWVSDIDYVPLKSATA) | 0.1203 | – | – |
| QVVSDIDYVPLKSATA V9A (QVVSDIDYAPLKSATA) | 0.00865 | – | – |
| QVVSDIDYVPLKSATA S13I (QVVSDIDYVPLKIATA) | 3.432e-5 | – | – |
| QVVSDIDYVPLKSATA A16V (QVVSDIDYVPLKSATV) | 0.03722 | – | – |
| VSDIDYVPLKSATA(averaged) D3G (VSGIDYVPLKSATA) | – | 0.003884 | – |
| QVVSDIDYVPLKSATA S4D (QVVDDIDYVPLKSATA) | 0 | – | – |
| VSDIDYVPLKSATAIT D5F (VSDIFYVPLKSATAIT) | 0 | – | – |
| VSDIDYVPLKSATA(averaged) L9R (VSDIDYVPRKSATA) | – | 0 | – |
| QVVSDIDYVPLKSATA A16I (QVVSDIDYVPLKSATI) | 0.001288 | – | – |
| VSDIDYVPLKSATAIT P8F (VSDIDYVFLKSATAIT) | 0 | – | – |
| QVVSDIDYVPLKSATA P10N (QVVSDIDYVNLKSATA) | 0 | – | – |
| QVVSDIDYVPLKSATA A16L (QVVSDIDYVPLKSATL) | 0.02555 | – | – |
| VSDIDYVPLKSATAIT I15Q (VSDIDYVPLKSATAQT) | 0.02097 | – | – |
| VSDIDYVPLKSATA(averaged) V7T (VSDIDYTPLKSATA) | – | 0 | – |
| VSDIDYVPLKSATAIT I4Y (VSDYDYVPLKSATAIT) | 0.9947 | – | – |
| QVVSDIDYVPLKSATA V2L (QLVSDIDYVPLKSATA) | 0.007947 | – | – |
| VSDIDYVPLKSATAIT A14W (VSDIDYVPLKSATWIT) | 0 | – | – |
| VSDIDYVPLKSATA(averaged) T13M (VSDIDYVPLKSAMA) | – | 0.2245 | – |
| VSDIDYVPLKSATA(averaged) V7M (VSDIDYMPLKSATA) | – | 0.0006304 | – |

| Substance | PSSM value of the substitution (DMS by phage display) (AP2M1 MU) | PSSM value of the substitution, averaged over the two overlapping peptides (AP2M1 MU) | further results |
| --- | --- | --- | --- |
| VSDIDYVPLKSATAIT D5L (VSDILYVPLKSATAIT) | 0.0005954 | – | – |
| VSDIDYVPLKSATA(averaged) D5P (VSDIPYVPLKSATA) | – | 0.00109 | – |
| QVVSDIDYVPLKSATA I6V (QVVSDVDYVPLKSATA) | 0.0007207 | – | – |
| VSDIDYVPLKSATA(averaged) S11A (VSDIDYVPLKAATA) | – | 0.0008274 | – |
| VSDIDYVPLKSATA(averaged) D5F (VSDIFYVPLKSATA) | – | 0 | – |
| QVVSDIDYVPLKSATA S13H (QVVSDIDYVPLKHATA) | 6.736e-5 | – | – |
| VSDIDYVPLKSATA(averaged) K10V (VSDIDYVPLVSATA) | – | 0.0003789 | – |
| QVVSDIDYVPLKSATA L11M (QVVSDIDYVPMKSATA) | 0 | – | – |
| VSDIDYVPLKSATA(averaged) A14K (VSDIDYVPLKSATK) | – | 0 | – |
| QVVSDIDYVPLKSATA A14E (QVVSDIDYVPLKSETA) | 0 | – | – |
| VSDIDYVPLKSATAIT K10T (VSDIDYVPLTSATAIT) | 0 | – | – |
| VSDIDYVPLKSATA(averaged) D5E (VSDIEYVPLKSATA) | – | 0.559 | – |
| QVVSDIDYVPLKSATA I6I | 0.001559 | – | – |
| VSDIDYVPLKSATA(averaged) L9D (VSDIDYVPDKSATA) | – | 0 | – |
| VSDIDYVPLKSATA(averaged) P8Y (VSDIDYVYLKSATA) | – | 0 | – |
| VSDIDYVPLKSATAIT K10N (VSDIDYVPLNSATAIT) | 0.254 | – | – |
| VSDIDYVPLKSATA(averaged) A12S (VSDIDYVPLKSSTA) | – | 0.1444 | – |
| VSDIDYVPLKSATA(averaged) P8K (VSDIDYVKLKSATA) | – | 0.0009116 | – |
| VSDIDYVPLKSATA(averaged) L9A (VSDIDYVPAKSATA) | – | 0 | – |
| VSDIDYVPLKSATAIT D3W (VSWIDYVPLKSATAIT) | 0.4233 | – | – |
| VSDIDYVPLKSATAIT A12K (VSDIDYVPLKSKTAIT) | 0 | – | – |
| QVVSDIDYVPLKSATA P10W (QVVSDIDYVWLKSATA) | 0.1266 | – | – |
| QVVSDIDYVPLKSATA I6Y (QVVSDYDYVPLKSATA) | 0.9949 | – | – |

| Substance | PSSM value of the substitution (DMS by phage display) (AP2M1 MU) | PSSM value of the substitution, averaged over the two overlapping peptides (AP2M1 MU) | further results |
| --- | --- | --- | --- |
| TDERSWVYSPLHYSAQ Y8D (TDERSWVDSPLHYSAQ) | – | – | DMS-derived PSSM value of the single-substitution variant (TLN1 PTB): 0.02077 |
| TDERSWVYSPLHYS(averaged) V7T (TDERSWTYSPLHYS) | – | – | DMS-derived PSSM value, averaged over the two overlapping peptides (TLN1 PTB): 0.05985 |
| TDERSWVYSPLHYS(averaged) Y8D (TDERSWVDSPLHYS) | – | – | DMS-derived PSSM value, averaged over the two overlapping peptides (TLN1 PTB): 0.03253 |
| TDERSWVYSPLHYS(averaged) T1K (KDERSWVYSPLHYS) | – | – | DMS-derived PSSM value, averaged over the two overlapping peptides (TLN1 PTB): 0.01554 |
| TDERSWVYSPLHYSAQ L11R (TDERSWVYSPRHYSAQ) | – | – | DMS-derived PSSM value of the single-substitution variant (TLN1 PTB): 0.04001 |
| TDERSWVYSPLHYSAQ Y8H (TDERSWVHSPLHYSAQ) | – | – | DMS-derived PSSM value of the single-substitution variant (TLN1 PTB): 0.116 |
| FPTDERSWVYSPLHYS S7G (FPTDERGWVYSPLHYS) | – | – | DMS-derived PSSM value of the single-substitution variant (TLN1 PTB): 0.01644 |
| TDERSWVYSPLHYS(averaged) Y8E (TDERSWVESPLHYS) | – | – | DMS-derived PSSM value, averaged over the two overlapping peptides (TLN1 PTB): 0.01034 |
| FPTDERSWVYSPLHYS D4V (FPTVERSWVYSPLHYS) | – | – | DMS-derived PSSM value of the single-substitution variant (TLN1 PTB): 0.0189 |
| TDERSWVYSPLHYSAQ T1A (ADERSWVYSPLHYSAQ) | – | – | DMS-derived PSSM value of the single-substitution variant (TLN1 PTB): 0.09419 |
| FPTDERSWVYSPLHYS H14F (FPTDERSWVYSPLFYS) | – | – | DMS-derived PSSM value of the single-substitution variant (TLN1 PTB): 0.004934 |
| FPTDERSWVYSPLHYS R6M (FPTDEMSWVYSPLHYS) | – | – | DMS-derived PSSM value of the single-substitution variant (TLN1 PTB): 0.01536 |
| TDERSWVYSPLHYS(averaged) T1S (SDERSWVYSPLHYS) | – | – | DMS-derived PSSM value, averaged over the two overlapping peptides (TLN1 PTB): 0.05373 |
| TDERSWVYSPLHYS(averaged) L11E (TDERSWVYSPEHYS) | – | – | DMS-derived PSSM value, averaged over the two overlapping peptides (TLN1 PTB): 0.01176 |
| TDERSWVYSPLHYSAQ S9M (TDERSWVYMPLHYSAQ) | – | – | DMS-derived PSSM value of the single-substitution variant (TLN1 PTB): 0.02329 |
| TDERSWVYSPLHYSAQ S14R (TDERSWVYSPLHYRAQ) | – | – | DMS-derived PSSM value of the single-substitution variant (TLN1 PTB): 0.003044 |
| FPTDERSWVYSPLHYS S16I (FPTDERSWVYSPLHYI) | – | – | DMS-derived PSSM value of the single-substitution variant (TLN1 PTB): 0.1835 |
| TDERSWVYSPLHYS(averaged) H12G (TDERSWVYSPLGYS) | – | – | DMS-derived PSSM value, averaged over the two overlapping peptides (TLN1 PTB): 0.05345 |
| TDERSWVYSPLHYS(averaged) S5I (TDERIWVYSPLHYS) | – | – | DMS-derived PSSM value, averaged over the two overlapping peptides (TLN1 PTB): 0.2382 |
| TDERSWVYSPLHYS(averaged) L11P (TDERSWVYSPPHYS) | – | – | DMS-derived PSSM value, averaged over the two overlapping peptides (TLN1 PTB): 0.004815 |
